The list shows a part of the results, in another mix than the full data. The source made the active and inactive calls.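 The calls were made as follows: active = tissue-nonspecific alkaline phosphatase inhibition above about 50% at 20 µM in the single-dose screen (limit read from the data); inactive = the rest.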

Sequences of proteins named here, by UniProt entry; tags and fusion partners are left off.
UniProt P05186, whole entry: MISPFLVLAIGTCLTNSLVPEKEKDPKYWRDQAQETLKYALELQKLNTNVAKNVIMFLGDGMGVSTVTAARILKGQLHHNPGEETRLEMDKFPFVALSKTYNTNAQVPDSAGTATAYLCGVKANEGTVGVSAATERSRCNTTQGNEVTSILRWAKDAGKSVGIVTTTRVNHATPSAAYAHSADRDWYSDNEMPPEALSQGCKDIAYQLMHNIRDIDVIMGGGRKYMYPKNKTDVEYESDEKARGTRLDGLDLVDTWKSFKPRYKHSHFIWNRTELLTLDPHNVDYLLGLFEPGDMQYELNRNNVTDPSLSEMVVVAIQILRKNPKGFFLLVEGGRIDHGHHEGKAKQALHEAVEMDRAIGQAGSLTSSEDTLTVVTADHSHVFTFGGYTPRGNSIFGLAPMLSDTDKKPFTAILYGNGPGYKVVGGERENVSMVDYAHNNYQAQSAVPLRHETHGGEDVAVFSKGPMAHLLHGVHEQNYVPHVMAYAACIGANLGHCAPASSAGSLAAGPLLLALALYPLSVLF

The experiment addresses Alkaline phosphatase, tissue-nonspecific isozyme (Homo sapiens) (UniProt P05186). Briefly: human TNAP enzyme inhibitors, primary screen, biochemical, luminescent, no phosphate acceptor, uHTS (AID 1012).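 Also: 0% = DMSO negative control and 100% = EDTA positive control.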 The conditions noted are these: purified TNAP, CDP-star luminescence, 30 min; at 20 µM; stronger effect = higher value.
As for `Cc1ccc(NP(C)(=O)Oc2ccccc2)c(C)c1` (stereo unspecified), the inhibition is inactive: -4.6%.

Source of the values: PubChem BioAssay AID1012 (Sanford-Burnham Center for Chemical Genomics, 2008).
